From ChEMBL document CHEMBL1141151, “High-affinity epidermal growth factor receptor (EGFR) irreversible inhibitors with diminished chemical reactivities as positron emission tomography (PET)-imaging agent candidates of EGFR overexpressing tumors” (J Med Chem, 2005)

Chains of the proteins cited; added tags and fusions are not shown.
UniProt P04626, whole entry: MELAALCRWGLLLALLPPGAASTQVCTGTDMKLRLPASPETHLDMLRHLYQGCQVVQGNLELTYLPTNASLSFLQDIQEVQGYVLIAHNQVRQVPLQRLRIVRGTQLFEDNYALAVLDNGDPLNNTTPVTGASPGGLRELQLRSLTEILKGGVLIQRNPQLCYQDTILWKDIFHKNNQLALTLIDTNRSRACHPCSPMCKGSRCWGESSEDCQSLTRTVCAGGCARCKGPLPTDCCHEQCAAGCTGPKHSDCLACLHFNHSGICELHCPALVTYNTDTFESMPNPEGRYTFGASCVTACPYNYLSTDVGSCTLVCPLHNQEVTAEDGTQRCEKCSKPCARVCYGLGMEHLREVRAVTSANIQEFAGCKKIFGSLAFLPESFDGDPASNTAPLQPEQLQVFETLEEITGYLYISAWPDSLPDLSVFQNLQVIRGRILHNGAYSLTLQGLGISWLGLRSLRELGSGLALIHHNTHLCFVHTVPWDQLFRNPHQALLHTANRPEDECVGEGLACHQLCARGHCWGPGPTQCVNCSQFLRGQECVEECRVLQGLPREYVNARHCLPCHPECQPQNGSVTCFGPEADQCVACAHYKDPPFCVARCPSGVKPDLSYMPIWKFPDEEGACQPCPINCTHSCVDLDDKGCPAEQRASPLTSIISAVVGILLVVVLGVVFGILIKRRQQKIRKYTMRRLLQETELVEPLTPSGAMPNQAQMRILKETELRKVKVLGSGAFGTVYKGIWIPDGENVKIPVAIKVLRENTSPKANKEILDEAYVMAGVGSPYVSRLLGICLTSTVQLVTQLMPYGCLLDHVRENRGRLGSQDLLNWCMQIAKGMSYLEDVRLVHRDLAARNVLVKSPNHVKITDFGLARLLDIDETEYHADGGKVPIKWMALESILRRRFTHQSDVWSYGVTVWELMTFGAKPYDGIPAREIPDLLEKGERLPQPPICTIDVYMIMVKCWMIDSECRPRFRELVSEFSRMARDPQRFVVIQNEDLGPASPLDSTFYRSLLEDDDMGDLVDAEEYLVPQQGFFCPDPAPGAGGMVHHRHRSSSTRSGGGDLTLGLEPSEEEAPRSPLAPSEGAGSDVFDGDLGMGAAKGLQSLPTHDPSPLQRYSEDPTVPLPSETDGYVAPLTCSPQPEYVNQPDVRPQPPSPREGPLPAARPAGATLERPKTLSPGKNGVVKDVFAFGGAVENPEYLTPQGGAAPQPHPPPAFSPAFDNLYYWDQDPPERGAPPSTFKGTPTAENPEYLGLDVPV

Biological target: Receptor tyrosine-protein kinase erbB-2 (Homo sapiens, UniProt P04626)
Assay: Inhibition of HER2 kinase in intact CSH12 cells; Range = 25-50 nM
Assay type: cell-based

## CN(C)C/C=C/C(=O)Nc1ccc2ncnc(Nc3cc(Cl)c(Cl)cc3F)c2c1
  IC50: 50 nM
